Reference: ChEMBL document CHEMBL1649335, “Discovery of {1-[4-(2-{hexahydropyrrolo[3,4-c]pyrrol-2(1H)-yl}-1H-benzimidazol-1-yl)piperidin-1-yl]cyclooctyl}methanol, systemically potent novel non-peptide agonist of nociceptin/orphanin FQ receptor as analgesic for the treatment of neuropathic pain: design, synthesis, and structure-activity …” (Bioorg Med Chem, 2010)

Chains of the proteins cited; added tags and fusions are not shown.
UniProt P41143, whole entry: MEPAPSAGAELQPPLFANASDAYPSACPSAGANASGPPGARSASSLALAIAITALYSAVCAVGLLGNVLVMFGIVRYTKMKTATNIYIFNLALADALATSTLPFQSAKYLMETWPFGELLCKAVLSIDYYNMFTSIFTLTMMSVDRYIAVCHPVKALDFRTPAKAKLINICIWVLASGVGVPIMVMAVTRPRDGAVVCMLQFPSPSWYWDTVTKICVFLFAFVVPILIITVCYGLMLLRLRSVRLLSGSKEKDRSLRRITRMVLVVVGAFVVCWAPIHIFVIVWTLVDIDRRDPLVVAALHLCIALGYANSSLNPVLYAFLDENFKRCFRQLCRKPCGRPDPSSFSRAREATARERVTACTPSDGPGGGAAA
UniProt P41146, whole entry: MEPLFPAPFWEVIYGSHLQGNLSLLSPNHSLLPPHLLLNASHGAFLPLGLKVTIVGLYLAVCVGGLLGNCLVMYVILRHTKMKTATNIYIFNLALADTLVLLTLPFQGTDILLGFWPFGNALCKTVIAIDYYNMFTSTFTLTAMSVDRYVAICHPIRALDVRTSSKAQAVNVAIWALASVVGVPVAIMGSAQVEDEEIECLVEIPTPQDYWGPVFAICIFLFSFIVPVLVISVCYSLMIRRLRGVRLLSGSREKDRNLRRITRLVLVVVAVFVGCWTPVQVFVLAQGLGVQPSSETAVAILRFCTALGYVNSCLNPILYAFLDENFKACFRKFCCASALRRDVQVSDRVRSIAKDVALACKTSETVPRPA
UniProt P35372, whole entry: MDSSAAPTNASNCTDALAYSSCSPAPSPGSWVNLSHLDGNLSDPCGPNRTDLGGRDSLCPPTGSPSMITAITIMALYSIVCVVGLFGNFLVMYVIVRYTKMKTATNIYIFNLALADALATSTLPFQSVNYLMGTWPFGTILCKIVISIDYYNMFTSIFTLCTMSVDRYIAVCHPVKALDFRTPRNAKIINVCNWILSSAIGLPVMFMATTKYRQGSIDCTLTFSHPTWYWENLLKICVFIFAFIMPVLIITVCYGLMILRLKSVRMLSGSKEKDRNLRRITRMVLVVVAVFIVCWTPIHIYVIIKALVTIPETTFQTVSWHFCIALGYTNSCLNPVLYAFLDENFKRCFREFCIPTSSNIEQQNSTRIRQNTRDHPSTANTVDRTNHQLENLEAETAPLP
UniProt P41145, whole entry: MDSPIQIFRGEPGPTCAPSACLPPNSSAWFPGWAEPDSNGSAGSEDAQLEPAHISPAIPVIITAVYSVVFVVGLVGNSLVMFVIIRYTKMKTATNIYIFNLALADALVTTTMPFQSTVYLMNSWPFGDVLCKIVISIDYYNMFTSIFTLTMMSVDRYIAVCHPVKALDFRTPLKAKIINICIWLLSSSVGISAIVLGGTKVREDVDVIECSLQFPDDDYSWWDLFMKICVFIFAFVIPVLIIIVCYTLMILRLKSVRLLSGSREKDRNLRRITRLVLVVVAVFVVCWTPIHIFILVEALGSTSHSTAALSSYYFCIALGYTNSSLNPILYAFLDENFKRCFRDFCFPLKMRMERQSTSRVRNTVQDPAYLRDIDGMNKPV

Assays:
[1] = target: Delta-type opioid receptor (Homo sapiens, UniProt P41143); settings: cho-k1
[2] = target: T1, Nociceptin receptor (Homo sapiens, UniProt P41146); settings: hek293
[3] = target: T2, Mu-type opioid receptor (Homo sapiens, UniProt P35372); settings: cho-k1
[4] = target: T3, Kappa-type opioid receptor (Homo sapiens, UniProt P41145); settings: hek293
[5] = target: T1, Nociceptin receptor; settings: hek293; remark: listed apart in the source
[6] = target: T2, Mu-type opioid receptor; settings: cho-k1; remark: listed apart in the source
[7] = target: T3, Kappa-type opioid receptor; settings: hek293; remark: listed apart in the source

Compound `O=c1[nH]c2ccccc2n1C1CCN(C2(CO)CCCCCCC2)CC1` has a Ki [1] of over 5000 nM, an EC50 [2] of 37 nM and an EC50 [3] of 144 nM. It also gave a Ki [4] of 239 nM, a Ki [5] of 4.29 nM and a Ki [6] of 16 nM. It also gave an EC50 [7] of 194 nM.
